The labels stand for the following.
B1: Escherichia coli single-stranded DNA binding protein (SSB) (natural protein, E. coli, UniProt P0AGE0 1-178, looked up)
chain: MASRGVNKVILVGNLGQDPEVRYMPNGGAVANITLATSESWRDKATGEMKEQTEWHRVVLFGKLAEVASEYLRKGSQVYIEGQLRTRKWTDQSGQDRYTTEVVVNVGGTMQMLGGRQGGGAPAGGNIGGGQPQGGWGQPQQPQGGNQFSGGAQSRPQQSAPAAPSNEPPMDFDDDIPF

Read-outs that look alike come from different tables or passages of the source.

What all share (assay): ITC
Assay [1] deals with T1, PriA DNA helicase (E. coli, UniProt P17888).
The target of assay [2] is T1, PriA DNA helicase. This is another data set of the same source.
The target of assay [3] is T1, PriA DNA helicase. This is another data set of the same source.
In assay [4] the target is T1, PriA DNA helicase. The source holds these as a separate data set.
Assay [5] deals with B1.
The target of assay [6] is B1. This is another data set of the same source.

For B1, the Ka was found to be 1e+06 M⁻¹ in assay [1], 1.8e+06 M⁻¹ in assay [2], 2.2e+07 M⁻¹ in assay [3] and 7.1e+07 M⁻¹ in assay [4].

B2: χ subunit of the DNA polymerase III holoenzyme (natural protein, E. coli, UniProt P28905 1-147, looked up)
chain: MKNATFYLLDNDTTVDGLSAVEQLVCEIAAERWRSGKRVLIACEDEKQAYRLDEALWARPAESFVPHNLAGEGPRGGAPVEIAWPQKRSSSRRDILISLRTSFADFATAFTEVVDFVPYEDSLKQLARERYKAYRVAGFNLNTATWK
For the molecule B2, in assay [5], the Ka worked out at 450000 M⁻¹; the dH was -7.7 kcal/mol; the stoichiometry N (commonly the number of molecules, sites or subunits per partner or assembly) turned out to be 2.8. Further, in assay [6], the Ka worked out at 6.1e+06 M⁻¹, the dH is -9 kcal/mol and the “stoichiometry N” value was found to be 4.2.

For the origin of these results see PMC2583361 (Critical reviews in biochemistry and molecular biology, 2008).
